Experimental data from BindingDB's records for 10.1016/S0960-894X(97)00406-X (1997).

Sequences of proteins named here, by UniProt entry; tags and fusion partners are left off.
UniProt P41143, whole entry, looked up: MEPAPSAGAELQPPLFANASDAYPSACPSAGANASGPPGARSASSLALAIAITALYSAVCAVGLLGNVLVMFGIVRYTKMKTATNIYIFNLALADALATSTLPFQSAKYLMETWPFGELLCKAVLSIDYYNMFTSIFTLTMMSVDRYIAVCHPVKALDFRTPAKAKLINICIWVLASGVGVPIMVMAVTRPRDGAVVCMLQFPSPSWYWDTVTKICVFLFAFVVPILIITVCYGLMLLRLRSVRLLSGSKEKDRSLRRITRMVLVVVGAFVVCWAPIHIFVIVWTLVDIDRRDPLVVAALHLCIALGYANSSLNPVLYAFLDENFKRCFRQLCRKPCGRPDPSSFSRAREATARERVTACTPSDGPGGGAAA

Target: Delta-type opioid receptor (Homo sapiens, UniProt P41143)
Test: ChEBML_147161
Description: Compound was evaluated for the inhibition of Opioid receptor delta 1 binding to guinea pig brain membranes, using 0.2 nM [3H]naltrindole as radioligand

CN(C(=O)Cc1ccc(Cl)c(Cl)c1)[C@H](CN1CCCC1)c1cccc(N)c1
Ki: 7.8 nM

CN(C(=O)Cc1ccc(Cl)c(Cl)c1)[C@@H](CN1CCCC1)c1cccc(N)c1
Ki: 1850 nM
